Data published in patent US8748608B2, “4-phenylpiperazine derivatives with functionalized linkers as dopamine D3 receptor selective ligands and methods of use” (The United States of America as Represented by the …, priority 2007, dated 2014).
Read-outs that look alike come from different tables or passages of the source.

Protein sequences, listed by entry. Tags and fused reporters are not part of them.
UniProt P35462, whole entry: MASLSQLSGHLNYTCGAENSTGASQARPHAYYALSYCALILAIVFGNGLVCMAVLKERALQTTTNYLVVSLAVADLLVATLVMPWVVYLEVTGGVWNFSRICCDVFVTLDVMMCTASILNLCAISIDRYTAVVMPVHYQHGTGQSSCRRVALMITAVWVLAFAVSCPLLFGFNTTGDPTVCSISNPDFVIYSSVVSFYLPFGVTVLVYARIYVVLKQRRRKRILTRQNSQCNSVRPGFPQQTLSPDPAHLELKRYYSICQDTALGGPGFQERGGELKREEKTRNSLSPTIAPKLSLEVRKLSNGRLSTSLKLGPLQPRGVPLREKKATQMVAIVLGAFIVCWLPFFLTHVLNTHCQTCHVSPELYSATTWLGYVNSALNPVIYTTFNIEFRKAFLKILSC

Target: human dopamine D3 receptor (Homo sapiens (Human), UniProt P35462)
Test: Human D2-like receptor competition binding in HEK cells, D3

Structure (SMILES): COc1ccccc1N1CCN(C/C=C/CNC(=O)c2ccc3c(c2)Cc2ccccc2-3)CC1 [Compound 15, N-(4-(4-(2-methoxyphenyl)piperazin-1-yl)-trans-but-2-enyl)-9H-fluorene-2-carboxamide]
- Ki (HEK cells, hD3, read-out: D3 Ki): 12 nM
- Ki (Table 3, unit inferred, with spread, read-out: D3 binding affinity): 1.2 ± 0.1 nM
